In the NIST ThermoML archive (doi:10.1007/s10765-007-0346-0):
± gives the expanded uncertainty stated by the source.

Legend:
[1] = 101.33 kPa, Liquid, Capillary tube (Ostwald / Ubbelohde) method
[2] = xn = mol fraction of the nth substance listed; conditions: 101 kPa, Liquid, Capillary tube (Ostwald / Ubbelohde) method

CCCCOCCCC [dibutyl ether]
[1]
Conditions	kinematic viscosity [m2/s]
283.15 K	1.03e-06 ± 8.2e-09
298.15 K	8.563e-07 ± 6.9e-09
313.15 K	7.187e-07 ± 5.9e-09

CCCCOCCCC [dibutyl ether] + CCCCCC
kinematic viscosity [m2/s], [2]
Conditions	283.15 K	298.15 K	313.15 K
x1 = 0.0506	5.334e-07 ± 4.6e-09	4.626e-07 ± 4.1e-09	4.167e-07 ± 3.7e-09
x1 = 0.105	5.573e-07 ± 4.8e-09	4.812e-07 ± 4.2e-09	4.309e-07 ± 3.8e-09
x1 = 0.1974	5.962e-07 ± 5.1e-09	5.131e-07 ± 4.5e-09	4.53e-07 ± 4e-09
x1 = 0.2961	6.404e-07 ± 5.4e-09	5.51e-07 ± 4.8e-09	4.771e-07 ± 4.2e-09
x1 = 0.3967	6.883e-07 ± 5.8e-09	5.884e-07 ± 5.1e-09	5.079e-07 ± 4.5e-09
x1 = 0.4991	7.393e-07 ± 6.2e-09	6.293e-07 ± 5.4e-09	5.414e-07 ± 4.7e-09
x1 = 0.5974	7.897e-07 ± 6.6e-09	6.69e-07 ± 5.7e-09	5.757e-07 ± 5e-09
x1 = 0.7004	8.479e-07 ± 7.1e-09	7.126e-07 ± 6e-09	6.104e-07 ± 5.3e-09
x1 = 0.8272	9.2e-07 ± 8e-09	7.686e-07 ± 6.5e-09	6.552e-07 ± 5.6e-09
x1 = 0.9125	9.723e-07 ± 8e-09	8.077e-07 ± 6.8e-09	6.851e-07 ± 5.9e-09
x1 = 0.9514	9.985e-07 ± 8.2e-09	8.287e-07 ± 7e-09	7.017e-07 ± 6e-09

CCCCOCCCC [dibutyl ether] + CCCCCCC
kinematic viscosity [m2/s], [2]
Conditions	283.15 K	298.15 K	313.15 K
x1 = 0.0479	6.828e-07 ± 5.8e-09	5.867e-07 ± 5.1e-09	5.078e-07 ± 4.5e-09
x1 = 0.0951	6.97e-07 ± 5.9e-09	5.979e-07 ± 5.1e-09	5.17e-07 ± 4.5e-09
x1 = 0.1907	7.247e-07 ± 6.1e-09	6.2e-07 ± 5.3e-09	5.355e-07 ± 4.7e-09
x1 = 0.2992	7.599e-07 ± 6.4e-09	6.468e-07 ± 5.5e-09	5.579e-07 ± 4.9e-09
x1 = 0.399	7.945e-07 ± 6.6e-09	6.723e-07 ± 5.7e-09	5.79e-07 ± 5e-09
x1 = 0.4989	8.296e-07 ± 6.9e-09	6.985e-07 ± 5.9e-09	6.001e-07 ± 5.2e-09
x1 = 0.5993	8.666e-07 ± 7.2e-09	7.269e-07 ± 6.2e-09	6.225e-07 ± 5.4e-09
x1 = 0.6973	9.023e-07 ± 7.5e-09	7.551e-07 ± 6.4e-09	6.445e-07 ± 5.5e-09
x1 = 0.7993	9.451e-07 ± 7.8e-09	7.861e-07 ± 6.6e-09	6.687e-07 ± 5.7e-09
x1 = 0.8986	9.862e-07 ± 8.2e-09	8.17e-07 ± 6.9e-09	6.933e-07 ± 5.9e-09
x1 = 0.9501	1.009e-06 ± 8.3e-09	8.332e-07 ± 7e-09	7.051e-07 ± 6e-09
x1 = 1	1.03e-06 ± 8.5e-09	8.563e-07 ± 7.2e-09	7.187e-07 ± 6.2e-09
